# Assay results published in patent US12171806B2, “Therapeutic regimens and methods for lowering blood glucose and/or body weight using GLP-1R and GCGR balanced agonists” (priority 2021, dated 2024).
# Entries after “also recorded” stand apart in the source; their conditions may differ.
# Assay: Phase 1 MAD study of ALT-801: adverse events (TEAEs), safety overview
# [1] = 1.2 mg and 1.8 mg, 6-week interim
smiles,measurement,setting,value
"CC[C@H](C)[C@H](NC(=O)[C@H](Cc1ccccc1)NC(=O)[C@H](CCC(=O)O)NC(=O)[C@@H]1CCCCNC(=O)CC[C@H](NC(=O)[C@H](CC(=O)O)NC(=O)[C@H](CC(C)C)NC(=O)[C@H](Cc2ccc(O)cc2)NC(=O)[C@H](CCCCN)NC(=O)[C@H](CO)NC(=O)[C@H](Cc2ccc(O)cc2)NC(=O)[C@H](CC(=O)O)NC(=O)[C@H](CO)NC(=O)[C@@H](NC(=O)[C@H](Cc2ccccc2)NC(=O)[C@@H](NC(=O)CNC(=O)[C@H](CCC(N)=O)NC(=O)C(C)(C)NC(=O)[C@@H](N)Cc2c[nH]cn2)[C@@H](C)O)[C@@H](C)O)C(=O)N[C@@H](CCCCNC(=O)[C@H]2O[C@@H](OCCCCCCCCCCCCCCCCCC(=O)O)[C@H](O)[C@@H](O)[C@@H]2O)C(=O)N[C@@H](C)C(=O)N[C@@H](C)C(=O)N1)C(=O)N[C@@H](CCC(N)=O)C(=O)N[C@@H](Cc1c[nH]c2ccccc12)C(=O)N[C@@H](CC(C)C)C(=O)N[C@@H](CC(C)C)C(=O)N[C@@H](CCC(N)=O)C(=O)N[C@H](C(N)=O)[C@@H](C)O [ALT-801, pemvidutide]","Constipation, Mild, % of subjects",1.2 mg SC once weekly,(0.0%)
same,"Constipation, Moderate, % of subjects",1.2 mg SC once weekly,(0.0%)
same,"Diarrhea, Mild, % of subjects",1.2 mg SC once weekly,(0.0%)
same,"Diarrhea, Moderate, % of subjects",1.2 mg SC once weekly,(0.0%)
same,"Hyperglycemia, % of subjects",1.2 mg SC once weekly,(0.0%)
same,"Nausea, Mild, % of subjects",1.2 mg SC once weekly,(14.3%)
same,"Nausea, Moderate, % of subjects",1.2 mg SC once weekly,(14.3%)
same,"Vomiting, Mild, % of subjects",1.2 mg SC once weekly,(14.3%)
same,"Vomiting, Moderate, % of subjects",1.2 mg SC once weekly,(0.0%)
same,"reports of vomiting, diarrhea or constipation",[1],"no reports of vomiting, diarrhea or constipation"
same,tolerability,[1],well-tolerated without dose titration
same,"Constipation, Mild, % of subjects",1.8 mg SC once weekly,(11.1%)
same,"Constipation, Moderate, % of subjects",1.8 mg SC once weekly,(11.1%)
same,"Diarrhea, Mild, % of subjects",1.8 mg SC once weekly,(0.0%)
same,"Diarrhea, Moderate, % of subjects",1.8 mg SC once weekly,(0.0%)
same,"Hyperglycemia, % of subjects",1.8 mg SC once weekly,(0.0%)
same,"Nausea, Mild, % of subjects",1.8 mg SC once weekly,(55.6%)
same,"Nausea, Moderate, % of subjects",1.8 mg SC once weekly,(11.1%)
same,"Vomiting, Mild, % of subjects",1.8 mg SC once weekly,(11.1%)
same,"Vomiting, Moderate, % of subjects",1.8 mg SC once weekly,(11.1%)
same,severity of nausea events,"1.8 mg, 6-week interim",mild in severity
same,"Constipation, Mild, % of subjects",2.4 mg SC once weekly,(18.2%)
same,"Constipation, Moderate, % of subjects",2.4 mg SC once weekly,(9.1%)
same,"Diarrhea, Mild, % of subjects",2.4 mg SC once weekly,(18.2%)
same,"Diarrhea, Moderate, % of subjects",2.4 mg SC once weekly,(0.0%)
same,"Hyperglycemia, % of subjects",2.4 mg SC once weekly,(0.0%)
same,"Nausea, Mild, % of subjects",2.4 mg SC once weekly,(45.5%)
same,"Nausea, Moderate, % of subjects",2.4 mg SC once weekly,(45.5%)
same,"Vomiting, Mild, % of subjects",2.4 mg SC once weekly,(45.5%)
same,"Vomiting, Moderate, % of subjects",2.4 mg SC once weekly,(27.3%)
same,hyperglycemic AEs,12 weeks,no hyperglycemic AEs
same,severity of Treatment-Emergent Adverse Events,12 weeks,mild to moderate
same,tolerability,"12 weeks, 1.2, 1.8 and 2.4 mg",well-tolerated without the need for dose titration; also recorded: well-tolerated
same,elevated ALT levels,"12 weeks, resolved after a pause in dosing",One patient experienced elevated ALT levels
same,Any TEAE; Mild; %,M1 1.2 mg (N = 7),(14.3%)
same,Any TEAE; Mild; n,M1 1.2 mg (N = 7),1
same,Any TEAE; Moderate; %,M1 1.2 mg (N = 7),(28.6%)
same,Any TEAE; Moderate; n,M1 1.2 mg (N = 7),2
same,Any TEAE; PLT; %,M1 1.2 mg (N = 7),(0.0%)
same,Any TEAE; PLT; n,M1 1.2 mg (N = 7),0
same,Any TEAE; Severe; %,M1 1.2 mg (N = 7),(0.0%)
same,Any TEAE; Severe; n,M1 1.2 mg (N = 7),0
same,TEAE Abdominal discomfort; Mild; %,M1 1.2 mg (N = 7),(0.0%)
same,TEAE Abdominal discomfort; Mild; n,M1 1.2 mg (N = 7),0
same,TEAE Abdominal discomfort; Moderate; %,M1 1.2 mg (N = 7),(0.0%)
same,TEAE Abdominal discomfort; Moderate; n,M1 1.2 mg (N = 7),0
same,TEAE Abdominal discomfort; PLT; %,M1 1.2 mg (N = 7),(0.0%)
same,TEAE Abdominal discomfort; PLT; n,M1 1.2 mg (N = 7),0
same,TEAE Abdominal discomfort; Severe; %,M1 1.2 mg (N = 7),(0.0%)
same,TEAE Abdominal discomfort; Severe; n,M1 1.2 mg (N = 7),0
same,TEAE Abdominal distension; Mild; %,M1 1.2 mg (N = 7),(0.0%)
same,TEAE Abdominal distension; Mild; n,M1 1.2 mg (N = 7),0
same,TEAE Abdominal distension; Moderate; %,M1 1.2 mg (N = 7),(0.0%)
same,TEAE Abdominal distension; Moderate; n,M1 1.2 mg (N = 7),0
same,TEAE Abdominal distension; PLT; %,M1 1.2 mg (N = 7),(0.0%)
same,TEAE Abdominal distension; PLT; n,M1 1.2 mg (N = 7),0
same,TEAE Abdominal distension; Severe; %,M1 1.2 mg (N = 7),(0.0%)
same,TEAE Abdominal distension; Severe; n,M1 1.2 mg (N = 7),0
same,TEAE Abdominal pain; Mild; %,M1 1.2 mg (N = 7),(0.0%)
same,TEAE Abdominal pain; Mild; n,M1 1.2 mg (N = 7),0
same,TEAE Abdominal pain; Moderate; %,M1 1.2 mg (N = 7),(0.0%)
same,TEAE Abdominal pain; Moderate; n,M1 1.2 mg (N = 7),0
same,TEAE Abdominal pain; PLT; %,M1 1.2 mg (N = 7),(0.0%)
same,TEAE Abdominal pain; PLT; n,M1 1.2 mg (N = 7),0
same,TEAE Abdominal pain; Severe; %,M1 1.2 mg (N = 7),(0.0%)
same,TEAE Abdominal pain; Severe; n,M1 1.2 mg (N = 7),0
same,TEAE Anaemia; Mild; %,M1 1.2 mg (N = 7),(0.0%)
same,TEAE Anaemia; Mild; n,M1 1.2 mg (N = 7),0
same,TEAE Anaemia; Moderate; %,M1 1.2 mg (N = 7),(0.0%)
same,TEAE Anaemia; Moderate; n,M1 1.2 mg (N = 7),0
same,TEAE Anaemia; PLT; %,M1 1.2 mg (N = 7),(0.0%)
same,TEAE Anaemia; PLT; n,M1 1.2 mg (N = 7),0
same,TEAE Anaemia; Severe; %,M1 1.2 mg (N = 7),(0.0%)
same,TEAE Anaemia; Severe; n,M1 1.2 mg (N = 7),0
same,TEAE Application site bruise; Mild; %,M1 1.2 mg (N = 7),(0.0%)
same,TEAE Application site bruise; Mild; n,M1 1.2 mg (N = 7),0
same,TEAE Application site bruise; Moderate; %,M1 1.2 mg (N = 7),(0.0%)
same,TEAE Application site bruise; Moderate; n,M1 1.2 mg (N = 7),0
same,TEAE Application site bruise; PLT; %,M1 1.2 mg (N = 7),(0.0%)
same,TEAE Application site bruise; PLT; n,M1 1.2 mg (N = 7),0
same,TEAE Application site bruise; Severe; %,M1 1.2 mg (N = 7),(0.0%)
same,TEAE Application site bruise; Severe; n,M1 1.2 mg (N = 7),0
same,TEAE Application site erythema; Mild; %,M1 1.2 mg (N = 7),(0.0%)
same,TEAE Application site erythema; Mild; n,M1 1.2 mg (N = 7),0
same,TEAE Application site erythema; Moderate; %,M1 1.2 mg (N = 7),(0.0%)
same,TEAE Application site erythema; Moderate; n,M1 1.2 mg (N = 7),0
same,TEAE Application site erythema; PLT; %,M1 1.2 mg (N = 7),(0.0%)
same,TEAE Application site erythema; PLT; n,M1 1.2 mg (N = 7),0
same,TEAE Application site erythema; Severe; %,M1 1.2 mg (N = 7),(0.0%)
